Laboratory results: patent publication US20250100987A1 (priority 2021, published 2025)

By UniProt entry, the sequences of proteins in these tests, tags left out. Where a name states a change or a piece, a line headed by the entry shows the natural chain unless it says otherwise.
UniProt P41145: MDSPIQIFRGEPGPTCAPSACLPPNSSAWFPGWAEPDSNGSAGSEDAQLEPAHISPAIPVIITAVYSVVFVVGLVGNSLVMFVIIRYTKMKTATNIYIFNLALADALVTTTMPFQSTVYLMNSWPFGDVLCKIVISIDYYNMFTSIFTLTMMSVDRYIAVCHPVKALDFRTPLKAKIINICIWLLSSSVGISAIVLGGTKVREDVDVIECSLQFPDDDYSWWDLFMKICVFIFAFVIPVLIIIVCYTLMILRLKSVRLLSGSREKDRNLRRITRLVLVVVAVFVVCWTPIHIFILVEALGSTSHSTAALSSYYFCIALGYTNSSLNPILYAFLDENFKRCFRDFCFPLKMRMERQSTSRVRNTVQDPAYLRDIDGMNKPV

Molecular target: Kappa opioid receptor (KOR) (Homo sapiens, UniProt P41145)
Assay: DiscoverX cAMP Hunter eXpress KOR GPCR Assay kit, Experiment 3.1 (96-well)
Assay type: cell-based
Conditions: lowest concentration tested, 0.1 nM, 15 μM Forskolin

## COC(=O)[C@@H]1C[C@H](OC(C)=O)C(=O)[C@H]2[C@@]1(C)CC[C@H]1C(=O)O[C@H](c3ccoc3)C[C@]21C
  inhibition of cAMP production: 100%
